Key:
[1] = target: Human α-amylase (purchased from Sigma; from human saliva) (human)
[2] = target: α-amylase from guts of adult cockroaches (Blatta orientalis), crude extract (Blatta orientalis (cockroach))

α-amylase inhibition (starch hydrolysis, method of Bernfeld) [1]: > 70% | α-amylase inhibition (starch hydrolysis, method of Bernfeld) [2]: 70%
Substance: SIα3 (Sorgum bicolor homologue) (from UniProt P21925)

— patent US5750504A, “Antimicrobial proteins” (Zeneca Agrochemicals, priority 1996, dated 1998)
